# High-throughput results deposited in PubChem by National Center for Advancing Translational Sciences (NCATS).
# This is a sample that favours compounds with a hit; in the whole collection about 13% have one here.
# Lamin A splicing – changes lamin A minigene splicing in HeLa cells; AID 1487; HeLa LMNA splicing GFP/RFP minigene ratio, 48 h; actives 0.01% (n = 200,000); Potency, µM (doses to about 46.1 µM), without a hit: at the top dose ratio change, negative = inhibition, hits mostly inhibitors; active means well fitted inhibition curve with a large enough effect in the signal ratio, with a control signal flat, not every such curve was filed as active; inconclusive means small, poorly fitted or top-dose-only effect, or effect the other way, or a change in a side signal; the % refers to the signal ratio; further: potency means the concentration at half of the fitted maximal effect; on the % scale 0 is the no-effect control and ±100 the full control effect
#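 S3 HeLa cells stably expressing lamin A-EGFP splicing minigene plus DsRed2, 600 cells/well, 48 h compound exposure at 37C. Laser-scanning cytometry; analysed as GFP (500-530 nm)/RFP (575-640 nm) total intensity ratio; 0.5% DMSO vehicle.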
# ALDH1A1 block – ALDH1A1 (human) enzyme inhibition; Potency, µM (doses to about 75.3 µM), for the others: at the highest dose activity, negative = inhibition, hits mostly inhibitors; actives 7.3% (n = 220,000); AID 1030; P00352; Purified ALDH1A1, NADH fluorescence, propionaldehyde substrate; active means well fitted inhibition curve with a large enough effect, not every such curve was filed as active; inconclusive means small, poorly fitted or top-dose-only effect, or another doubt; inactive means no such curve, though single readings can be large or run the other way;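 further: potency means the concentration at half of the fitted maximal effect; plate controls were no enzyme wells and a reference inhibitor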
# G9a inh – G9a (human) methyltransferase inhibition; Potency, µM (titrated, usually from 102 µM), for the others: top-dose activity, negative = inhibition, hits mostly inhibitors; AID 504332; Q96KQ7; G9a H3K9 monomethylation, AlphaScreen, 2 h; actives 8.8% (n = 350,000); further: potency means the concentration at half of the fitted maximal effect; on the % scale 0 is the no-effect control and ±100 the full control effect; nearly all actives have a fitted effect of over 75% in size
#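 G9a (20 nM) was preincubated 15 min with compound, then reacted 2 h at room temperature with 500 nM biotin-H3K9 peptide and 20 µM SAM. Monomethyl-H3K9 detected by AlphaScreen using anti-H3K9me1 antibody.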
# KDM4E inh – blocks human JMJD2E demethylase activity. actives 1.6% (n = 230,000). AID 2147. JMJD2E catalytic domain, FDH-coupled NADH fluorescence (FDH is formaldehyde dehydrogenase). Potency, µM (top dose mostly 57.1 µM), inactives show top-dose activity change, negative = inhibition, most hits filed as inhibitors; active means well fitted inhibition curve with a large enough effect, not every such curve was filed as active; inconclusive means small, poorly fitted or top-dose-only effect, or another doubt; inactive means no such curve, though single readings can be large or run the other way;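 further: potency means the concentration at half of the fitted maximal effect; 0% = wells with enzyme and -100% = buffer wells without enzyme; nearly all actives have a fitted effect of over 50% in size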
# miR-21 reporter – miR-21 reporter, rising signal; 340,000 tested, under 10 active; Potency, µM (highest dose often 38.3 µM), for the others: top-dose reporter change, positive = more light; HeLa miR-21 FLuc reporter, luciferase, 48 h; active = well fitted rising curve with a large enough effect; inconclusive = small, poorly fitted or top-dose-only effect; inactive = no such curve, though single readings can be large or run the other way;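 further: % of control where 0% means no effect; miR-21 action dims this reporter so a rising signal means less miR-21 action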
#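 Using DMEM plus 10% FBS, HeLa miR-21-FLuc cells are incubated with test compounds (final up to about 40uM) for 48 hours; firefly luciferase signal is then imaged following reagent-mediated lysis.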
# Sfp PPTase inh – inhibitors of Bacillus subtilis Sfp phosphopantetheinyl transferase | Biochemical Sfp PPTase activity, qHTS | AID 1490 | Potency, µM, for the others: max response, negative = inhibition, hits mostly inhibitors | actives 3.5% (n = 310,000) | Q9F4F7; active = well fitted inhibition curve with a large enough effect; inconclusive = small, poorly fitted or top-dose-only effect, or another doubt; inactive = no such curve, though single readings can be large or run the other way;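 also: the enzyme is Sfp with the accession as filed and its product quenches rhodamine fluorescence; potency is read from the fitted curve at half-maximal effect; 0% = enzyme reaction without inhibitor and -100% = no enzyme wells; top concentration of the series not given in the record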
#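 Sfp 15 nM + cpd, 15 min RT; start w/ rhodamine-CoA 5 uM, BHQ-2-YbbR 12.5 uM (final); 50 mM Hepes pH 7.6, 10 mM MgCl2, 0.01% NP-40, 0.01% BSA; read 525/598 nm at 0 and 30 min.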
# * = called active by the depositor; ? = inconclusive; · = no result; [ ] = remark or other dose. Unless noted, the call rests on the fitted dose curve; in most records, active means well fitted curve in the direction sought with a large enough effect; inconclusive means small, poorly fitted or top-dose-only effect, or another doubt; inactive means no such curve, though single readings can be large; an effect the other way counts as inactive or inconclusive.
# Letters – A = Lamin A splicing; B = ALDH1A1 block; C = G9a inh; D = KDM4E inh; E = miR-21 reporter; F = Sfp PPTase inh
smiles: Cc1ccccc1CNC(=O)c1oc2c(c1C)-c1[nH]ncc1CC2
  A: · | B: · | C: -26.5%[59 µM] | D: · | E: -0.4% | F: ·

smiles: Cc1cc(C)cc(NS(=O)(=O)c2c(C(=O)N3CCOCC3)c(C)n(C)c2C)c1
  A: · | B: · | C: 2.4%[59 µM] | D: · | E: -0.9% | F: 17.2%

smiles: On1onc2c3cc(-c4ccccc4)nc3ccc21
  A: ? | B: 17.8µM* | C: ? | D: 3.4% | E: -1.0% | F: -7.7%

smiles: Cc1c(C(=O)OCCOc2ccccc2)[nH]c2c1C(=O)CCC2
  A: ? | B: -15.4% | C: ? | D: 2.6% | E: 19.1% | F: ?

smiles: Cc1c(C(=O)OC2CCCC2C)[nH]c2c1C(=O)CCC2 (stereo not drawn)
  A: ? | B: 8.91µM* | C: ? | D: 4.0% | E: -70.4% | F: -22.4%

smiles: COc1cc(/C=C2\SC(=O)N(CCN)C2=O)ccc1OS(=O)(=O)c1cc(C)ccc1C
  A: · | B: -3.2% | C: 28.2µM* | D: -6.0% | E: 1.3% | F: -50.6%

smiles: NCCN1C(=O)S/C(=C\c2ccc3c(c2)OCO3)C1=O
  A: · | B: · | C: 44.7µM* | D: · | E: 20.4% | F: -0.9%

smiles: O=C(CNC(=O)c1ccccc1F)NCCN1C(=O)S/C(=C\c2ccc3c(c2)OCO3)C1=O
  A: · | B: · | C: 1.2%[2.33 µM] | D: · | E: · | F: ·

smiles: COc1ccc(/C=C2\SC(=O)N(CCC(=O)Nc3ccccc3)C2=O)cc1OC
  A: ? | B: 1.2% | C: ? | D: 1.9% | E: -2.3% | F: -5.4%

smiles: Cc1ccc(-c2[nH]ncc2/C=N/n2c(COc3ccccc3C)nc3ccccc3c2=O)cc1
  A: ? | B: ? | C: -3.5% | D: -4.3% | E: -12.7% | F: 25.8%

smiles: CCc1ccc(S(=O)(=O)NCC2(N3CCOCC3)CCCCC2)cc1
  A: · | B: · | C: -7.2%[12.7 µM] | D: · | E: · | F: ·

smiles: COc1ccc(/C=N/NC(=O)c2nc(-c3ccccc3)cc(-c3ccccc3)n2)cc1OC
  A: -18.0% | B: ? | C: 24.9%[59 µM] | D: ? | E: -2.8% | F: -8.2%

smiles: COc1ccc(/C=N/c2oc(-c3ccccc3)cc2C#N)cc1OC
  A: -14.9% | B: ? | C: ? | D: 0.3% | E: -23.6% | F: 79.4µM*

smiles: COc1ccc(S(=O)(=O)N(C(=O)c2ccncc2)c2ccc(OC(=O)c3ccncc3)cc2)cc1
  A: -9.2%[46 µM] | B: 6.7% | C: 35.5µM* | D: -26.9% | E: 5.9% | F: 4.9%

smiles: O=S(=O)(c1ccc(Br)cc1)c1nc(-c2ccco2)oc1NCC1CCCO1 (stereo not drawn)
  A: 23.6%[1.84 µM] | B: 14.1µM* | C: 35.5µM* | D: -23.9% | E: -3.8% | F: 5.6%

# Exported with each value named: entries from further up.
Cc1c(C(=O)OC2CCCC2C)[nH]c2c1C(=O)CCC2 (stereo not drawn)
  Lamin A splicing = ?	ALDH1A1 block = 8.91µM*	G9a inh = ?	KDM4E inh = 4.0%	miR-21 reporter = -70.4%	Sfp PPTase inh = -22.4%
COc1cc(/C=C2\SC(=O)N(CCN)C2=O)ccc1OS(=O)(=O)c1cc(C)ccc1C
  Lamin A splicing = ·	ALDH1A1 block = -3.2%	G9a inh = 28.2µM*	KDM4E inh = -6.0%	miR-21 reporter = 1.3%	Sfp PPTase inh = -50.6%

# Next section.
# Letters – A = Lamin A splicing; B = ALDH1A1 block; C = G9a inh; D = KDM4E inh; E = miR-21 reporter; F = Sfp PPTase inh
smiles: Cc1ccc(S(=O)(=O)c2nc(-c3ccco3)oc2NCC2CCCO2)cc1 (stereo not drawn)
  A: 0.0% | B: 10µM* | C: 10µM* | D: ? | E: -11.0% | F: ?

smiles: CCCOc1ccc(C2C(=O)N(C3CCCCCC3)CC(=O)N2Cc2ccc(OC)cc2)cc1OC (stereo not drawn)
  A: -17.0%[46 µM] | B: · | C: 4.6%[59 µM] | D: · | E: -0.7% | F: ·

smiles: CC(=O)NCCNc1ncnc2ccc(-c3ccccc3C#N)cc12
  A: ? | B: ? | C: 16.6%[0.501 µM] | D: · | E: · | F: 8.8%

smiles: COc1ccc(OCc2ccc(-c3nc(C#N)c(N4CCCCC4)o3)o2)cc1
  A: ? | B: · | C: 2.24µM* | D: · | E: 2.6% | F: ·

smiles: COc1ccc(OCc2ccc(-c3nc(C#N)c(N4CCN(C)CC4)o3)o2)cc1
  A: 3.4%[46 µM] | B: · | C: 17.8µM* | D: · | E: 0.0% | F: ·

smiles: COc1ccc(OCc2ccc(-c3nc(C#N)c(N4CCC(C(N)=O)CC4)o3)o2)cc1
  A: 14.0%[46 µM] | B: · | C: -6.7%[59 µM] | D: · | E: 1.8% | F: ·

smiles: O=C(Cn1c(-c2cccs2)cc2ccccc21)NCCCN1CCN(c2ccc(F)cc2)CC1
  A: -6.9%[46 µM] | B: · | C: -3.0%[59 µM] | D: · | E: -3.5% | F: ·

smiles: CSc1nc(N)nc(SCC(=O)Nc2ccc(Cl)cc2)c1C#N
  A: -15.9% | B: ? | C: 5.5% | D: ? | E: 9.2% | F: 8.9%

smiles: Cc1cc(C)c(C#N)c(SCc2ccccc2)n1
  A: 20.5% | B: ? | C: ? | D: -2.8% | E: -19.6% | F: ?

smiles: Cc1ccc(S(=O)(=O)CCSc2nc(C)cc(C)c2C#N)cc1
  A: -9.5% | B: 2µM* | C: -2.6%[59 µM] | D: -0.2% | E: -1.1% | F: 13.7%

smiles: CSc1nc(N)nc(SCCS(=O)(=O)c2ccc(Cl)cc2)c1C#N
  A: ? | B: 2.51µM* | C: -13.1%[59 µM] | D: -10.8% | E: -4.1% | F: -0.4%

smiles: Cc1cc(C)c(C#N)c(SCCS(=O)(=O)Cc2ccccc2)n1
  A: -5.0% | B: 6.31µM* | C: 2.6%[59 µM] | D: -0.7% | E: -7.9% | F: -1.6%

smiles: CCS(=O)(=O)CCSc1nc(C)cc(C)c1C#N
  A: 2.9% | B: ? | C: -1.4%[12.7 µM] | D: -9.3% | E: -6.8% | F: 8.1%

smiles: Nc1c(CO)nnn1-c1ccccc1
  A: ? | B: 2.0% | C: 23.2%[59 µM] | D: 11.7% | E: -2.0% | F: ?

smiles: Cc1ccc(C)c(Cn2c3ccccc3c3cnn(CC(=O)NCC(C)c4ccccc4)c(=O)c32)c1 (stereo not drawn)
  A: · | B: · | C: -15.3%[59 µM] | D: · | E: -0.1% | F: ·

# The results go on:
# Letters – A = Lamin A splicing; B = ALDH1A1 block; C = G9a inh; D = KDM4E inh; E = miR-21 reporter; F = Sfp PPTase inh
smiles: CCc1nn(Cc2c(C)cc(C)cc2C)c(=O)c2cc3cc(C)ccc3n12
  A: · | B: · | C: 3.8%[59 µM] | D: · | E: -1.0% | F: ·

smiles: CC(OC(=O)c1cccc(S(=O)(=O)N2CCCCCC2)c1)C(=O)Nc1ccc(S(N)(=O)=O)cc1 (stereo not drawn)
  A: · | B: · | C: 50.1µM* | D: · | E: · | F: ·

smiles: CC(=O)Nc1cccc(C(=O)OC(C)C(=O)Nc2ccc(S(=O)(=O)N3CCCC3)cc2)c1 (stereo not drawn)
  A: · | B: · | C: 50.1µM* | D: · | E: · | F: ·

smiles: CC(=O)Nc1ccc(NC(=O)C(C)OC(=O)c2cccc(S(=O)(=O)N3CCCC3)c2)cc1 (stereo not drawn)
  A: · | B: · | C: 39.8µM* | D: · | E: · | F: ·

smiles: CC(=O)Nc1ccc(NC(=O)C(C)OC(=O)c2cccc(S(=O)(=O)N3CCCCC3)c2)cc1 (stereo not drawn)
  A: · | B: · | C: ? | D: · | E: -7.3% | F: 3.7%

smiles: Cc1ccccc1C(=O)NCC(c1cccnc1)N1CCc2ccccc21 (stereo not drawn)
  A: ? | B: · | C: 4.9%[59 µM] | D: · | E: 10.6% | F: ·

smiles: CCn1c(=N)c(C(=O)NC2CCCC2)cc2c(=O)n3ccccc3nc21
  A: · | B: · | C: -7.6%[59 µM] | D: · | E: -3.1% | F: ·

smiles: CN(C)CCNC(=O)/C(=C/c1ccc(-c2ccc(Cl)cc2)o1)NC(=O)c1ccccc1
  A: ? | B: -12.5% | C: ? | D: 3.8% | E: ? | F: -30.9%

smiles: Cc1ccc(C(=O)N/C(=C\c2ccc(-c3ccccc3[N+](=O)[O-])o2)C(=O)NCCCN2CCOCC2)cc1
  A: · | B: · | C: 44.7µM* | D: · | E: 12.4% | F: ?

smiles: Cc1ccc(C(=O)N/C(=C\c2ccc(-c3cccc([N+](=O)[O-])c3)o2)C(=O)NCCCN(C)C)cc1
  A: · | B: · | C: 50.1µM* | D: · | E: 21.3% | F: -12.6%

smiles: Cc1ccc(C(=O)N/C(=C\c2ccc(-c3ccc(Br)cc3)o2)C(=O)NCCCN(C)C)cc1
  A: · | B: ? | C: -50.0% | D: ? | E: ? | F: ?

smiles: CN(C)CCCNC(=O)/C(=C\c1ccc(-c2cccc([N+](=O)[O-])c2)o1)NC(=O)c1ccccc1
  A: · | B: ? | C: 50.1µM* | D: -3.5% | E: -14.9% | F: 8.9%

smiles: CN(C)CCNC(=O)/C(=C/c1ccc(-c2ccc(Cl)cc2Cl)o1)NC(=O)c1ccccc1
  A: ? | B: ? | C: ? | D: -5.0% | E: ? | F: 39.8µM*

smiles: COc1ccc(C(=O)Nc2c(Cl)cc(Cl)cc2C(=O)N2CCOCC2)cc1
  A: · | B: -2.5% | C: -6.0% | D: -9.9% | E: -6.7% | F: 13.6%

smiles: CCc1nn(C(C)C(=O)NC(C)CCc2ccco2)c(=O)c2cc3occc3n12 (stereo not drawn)
  A: ? | B: ? | C: -9.3%[12.7 µM] | D: -4.4% | E: -8.9% | F: 79.4µM*
